## AlphaSeq binding of Ab-95 light chain variants to a spike HR2 peptide

Reference: Engelhart et al. 2022, doi:10.1038/s41597-022-01779-4. File: FLAb, binding data.

All variants were tested on one target, the spike HR2 peptide PDVDLGDISGINAS (SARS-CoV-2).

Ab-95 is the parent antibody, in scFv form: VH, then a 15-residue (Gly4Ser)3 linker, then VL. The heavy chain is unchanged in all variants.
VH: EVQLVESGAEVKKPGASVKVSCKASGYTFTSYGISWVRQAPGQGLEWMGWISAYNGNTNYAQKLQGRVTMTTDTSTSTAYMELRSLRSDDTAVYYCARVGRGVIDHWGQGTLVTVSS
VL: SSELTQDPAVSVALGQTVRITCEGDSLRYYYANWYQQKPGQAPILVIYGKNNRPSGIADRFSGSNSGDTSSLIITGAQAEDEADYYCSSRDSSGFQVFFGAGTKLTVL

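The parent was found by panning a naive human phage display library on the peptide. In library AAYL52, one, two or three CDR residues were substituted; doubles and triples were drawn at random. AlphaSeq pools MATa yeast showing the antibodies with MATalpha yeast showing the peptide. Mating (16 h, 30 °C) was followed by selection of diploids and sequencing of their barcodes. The ratio of observed to expected reads was calibrated, replicate by replicate, on BCL2-family standards whose Kd was known from biolayer interferometry. Mating was done three times.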

Each variant's VL is given in full.
Each Kd is an estimate from the mating assay, the geometric mean of the replicates in which the pair was seen; lower is stronger.
An entry "not detected" has no value in the source: the pair was not observed among the diploids in any replicate. This suggests poor binding but is not conclusive.

VL	apparent Kd	replicates with signal
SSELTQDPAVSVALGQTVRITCIGDSLRYYYANWYQQKPGQAPILVIYGKNNRPSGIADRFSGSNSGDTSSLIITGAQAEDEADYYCSRRDSEGFQVFFGAGTKLTVL	3.0 µM	1/3
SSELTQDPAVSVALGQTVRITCEGDSLRYYYANWYQQKPGQAPILVIYDKNNRDNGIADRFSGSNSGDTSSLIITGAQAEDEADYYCSSRDSSGFQVFFGAGTKLTVL	1.6 µM	3/3
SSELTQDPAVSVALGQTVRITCEGLFLRYYYANWYQQKPGQAPILVIYGKNNRPSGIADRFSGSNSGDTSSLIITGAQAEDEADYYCGSRDSSGFQVFFGAGTKLTVL	not detected	0/3
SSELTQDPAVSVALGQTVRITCEGTSLRYYYANWYQQKPGQAPILVIYGENNRPSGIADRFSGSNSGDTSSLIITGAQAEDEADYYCSSRDSSGFQVEFGAGTKLTVL	6.1 µM	2/3
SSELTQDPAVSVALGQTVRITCHGDSLRYYYANWYQQKPGQAPILVIYGKNNRPSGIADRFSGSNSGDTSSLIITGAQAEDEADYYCCSRDSSQFQVFFGAGTKLTVL	4.8 µM	2/3
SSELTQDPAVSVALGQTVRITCEGDSLNYYYANWYQQKPGQAPILVIYGKNNRDSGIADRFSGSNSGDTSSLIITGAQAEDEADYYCSSDDSSGFQVFFGAGTKLTVL	1.1 µM	3/3
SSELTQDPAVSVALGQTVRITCEGDSLRYYYSNWYQQKPGQAPILVIYGKNNRPSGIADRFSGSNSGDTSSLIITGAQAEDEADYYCSSRMSLGFQVFFGAGTKLTVL	650 nM	3/3
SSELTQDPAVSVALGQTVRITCLGDSLRPYYANWYQQKPGQAPILVIYGKNNRPSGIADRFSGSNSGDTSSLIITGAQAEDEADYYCSSGDSSGFQVFFGAGTKLTVL	320 nM	3/3
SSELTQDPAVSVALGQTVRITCEGDSLRYYYANWYQQKPGQAPILVIYGKNNRPSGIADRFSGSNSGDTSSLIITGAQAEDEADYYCKSRDSSGMQVFFGAGTKLTVL	25 µM	2/3
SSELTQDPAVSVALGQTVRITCEGDSLRYQYANWYQQKPGQAPILVIYGKNNRPFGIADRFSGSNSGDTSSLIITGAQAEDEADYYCSSRDSSGFQVFFGAGTKLTVL	15 nM	3/3
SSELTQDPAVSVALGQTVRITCEGDSLRYYYANWYQQKPGQAPILVIYGKWNRPSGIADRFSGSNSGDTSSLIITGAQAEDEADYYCHSRDSSGFWVFFGAGTKLTVL	5.5 µM	2/3
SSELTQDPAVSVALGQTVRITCEGDSLRYYYANWYQQKPGQAPILVIYVKNNNPSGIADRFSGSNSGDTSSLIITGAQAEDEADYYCSGRDSSGFQVFFGAGTKLTVL	780 nM	1/3

Continued, with the values leading:

apparent Kd	replicates with signal	VL
1.1 µM	3/3	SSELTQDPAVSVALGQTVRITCYGDSLRYYYANWYQQKPGQAPILVIYGKNNRPSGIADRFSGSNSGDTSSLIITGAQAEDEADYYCSSRDSNGFQVCFGAGTKLTVL
25 µM	1/3	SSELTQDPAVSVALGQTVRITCEGDSRRYYYANWYQQKPGQAPILVIYGWNNRPSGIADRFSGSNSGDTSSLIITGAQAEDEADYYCSSRDSSGFQSFFGAGTKLTVL
1.0 µM	3/3	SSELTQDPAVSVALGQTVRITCEGDSLREYYANWYQQKPGQAPILVIYGKNNRPSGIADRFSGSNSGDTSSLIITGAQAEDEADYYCSSRDGSGQQVFFGAGTKLTVL
29 µM	2/3	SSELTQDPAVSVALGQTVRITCEGYSLRYYYYNWYQQKPGQAPILVIYGKNNRPSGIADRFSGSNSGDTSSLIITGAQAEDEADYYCSSRGSSGFQVFFGAGTKLTVL
16 µM	1/3	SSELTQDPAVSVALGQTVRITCEFDSLREYYANWYQQKPGQAPILVIYGWNNRPSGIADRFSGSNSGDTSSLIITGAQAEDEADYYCSSRDSSGFQVFFGAGTKLTVL
21 µM	3/3	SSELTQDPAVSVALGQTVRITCEGDSLRYYYANWYQQKPGQAPILVIYGKNNRPSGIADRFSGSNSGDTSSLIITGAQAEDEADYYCTSRDSSLFQRFFGAGTKLTVL
not detected	0/3	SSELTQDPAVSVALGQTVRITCEGDVLRYYYANWYQQKPGQAPILVIYGKNPRPSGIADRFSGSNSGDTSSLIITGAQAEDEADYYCSSLDSSGFQVFFGAGTKLTVL
not detected	0/3	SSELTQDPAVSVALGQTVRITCEGDSLRYYYQNWYQQKPGQAPILVIYGKNNRGSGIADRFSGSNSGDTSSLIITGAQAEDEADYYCSSRDSSGFQVFFGAGTKLTVL
19 nM	3/3	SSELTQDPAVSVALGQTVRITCEGESLRYTYANWYQQKPGQAPILVIYGKNNRPFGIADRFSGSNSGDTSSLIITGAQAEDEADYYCSSRDSSGFQVFFGAGTKLTVL
6.1 µM	3/3	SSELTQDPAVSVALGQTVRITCEGDSLRYYYAEWYQQKPGQAPILVIYGKNNRTRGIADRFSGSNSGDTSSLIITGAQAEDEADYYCSSRDSSGFQVFFGAGTKLTVL
5.7 µM	1/3	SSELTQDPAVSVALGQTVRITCEGDSLRYYYAQWYQQKPGQAPILVIYAKNNRPSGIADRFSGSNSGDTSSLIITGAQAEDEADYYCSSRRSSGFQVFFGAGTKLTVL
82 nM	3/3	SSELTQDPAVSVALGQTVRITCEGDSLRYYYANWYQQKPGQAPILVIYGDGNRPSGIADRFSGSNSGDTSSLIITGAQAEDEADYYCSSRASSGFQVFFGAGTKLTVL

The last 4 entries again:

VL	apparent Kd	replicates with signal
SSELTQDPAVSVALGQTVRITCEGESLRYTYANWYQQKPGQAPILVIYGKNNRPFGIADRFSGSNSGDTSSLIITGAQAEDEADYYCSSRDSSGFQVFFGAGTKLTVL	19 nM	3/3
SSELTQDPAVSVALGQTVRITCEGDSLRYYYAEWYQQKPGQAPILVIYGKNNRTRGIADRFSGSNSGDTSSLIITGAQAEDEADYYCSSRDSSGFQVFFGAGTKLTVL	6.1 µM	3/3
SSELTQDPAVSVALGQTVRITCEGDSLRYYYAQWYQQKPGQAPILVIYAKNNRPSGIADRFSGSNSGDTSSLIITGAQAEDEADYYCSSRRSSGFQVFFGAGTKLTVL	5.7 µM	1/3
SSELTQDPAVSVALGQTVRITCEGDSLRYYYANWYQQKPGQAPILVIYGDGNRPSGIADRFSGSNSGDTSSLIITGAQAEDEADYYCSSRASSGFQVFFGAGTKLTVL	82 nM	3/3

In this assay the parent's reference entry averaged 200 nM; its copy inside this library read 180 nM.
Empty control strains, which show no peptide, gave a signal in 28% of pairings with library AAYL52; the median was 8.2 µM and 95% of these signals were weaker than 800 nM. No background was subtracted.